Measurements taken from IntAct's records for PubMed 9515927.

B1: DNA polymerase III subunit epsilon (Escherichia coli (strain K12)), P03007 (parent)
chain: MSTAITRQIVLDTETTGMNQIGAHYEGHKIIEIGAVEVVNRRLTGNNFHVYLKPDRLVDPEAFGVHGIADEFLLDKPTFAEVADEFMDYIRGAELVIHNAAFDIGFMDYEFSLLKRDIPKTNTFCKVTDSLAVARKMFPGKRNSLDALCARYEIDNSKRTLHGALLDAQILAEVYLAMTGGQTSMAFAMEGETQQQQGEATIQRIVRQASKLRVVFATDEEIAAHEARLDLVQKKGGSCLWRA

Variants of: B1
Conditions: with dpo3a_ecoli dnaE

Q: Which “effect of a mutation on the interaction” value does the source give for MSTAITRQIVLDTETTGMNQIGAHYEGHKIIEIGAVEVVNRRLTGNNFHVYLKPDRLVDPEAFGVHGIADEFLLDKPTFAEVADEFMDYIRGAELGIHNAAFDIGFMDYEFSLLKRDIPKTNTFCKVTDSLAVARKMFPGKRNSLDALCARYEIDNSKRTLHGALLDAQILAEVYLAMTGGQTSMAFAMEGETQQQQGEATIQRIVRQASKLRVVFATDEEIAAHEARLDLVQKKGGSCLWRA [V96G] here?
A: Its value is “decreasing interaction”.
